This is a selection; strong and weak results do not stand in their true shares. The source made the active and inactive calls.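 How the source made its calls: active means B-score, a plate-corrected calcium signal, over three deviations above library mean, with baseline fluorescence within five deviations of library mean; inactive means the rest.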

Chains of the proteins cited; added tags and fusions are not shown. Lines headed by an entry give the natural chain unless they say otherwise; changes in a name come on top.
UniProt P49798: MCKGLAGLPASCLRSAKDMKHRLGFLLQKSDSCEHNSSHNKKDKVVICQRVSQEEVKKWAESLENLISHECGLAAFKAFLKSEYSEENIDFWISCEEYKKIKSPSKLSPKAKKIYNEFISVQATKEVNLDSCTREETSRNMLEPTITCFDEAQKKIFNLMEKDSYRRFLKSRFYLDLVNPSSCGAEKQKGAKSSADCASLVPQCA

The target in the test is Regulator of G-protein signaling 4 (Homo sapiens) (UniProt P49798). Description: RGS4 inhibitors, primary screen, cell-based, HEK293 M3R inducible RGS4, calcium flux (AID 463165).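 Further: RGS4 expression induced by doxycycline in cells with stable M3 receptor; B-score is computed from the integrated fluorescence ratio over baseline after carbachol; higher B-score means a larger calcium signal and so more RGS4 inhibition.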 The conditions noted are these: Fluo-4 calcium flux, at 10 µM, stronger effect = higher value, triggered by carbachol at its EC20. A general note: Calcium flux is commonly read through the fluorescence of an indicator in the cells.
Consider `CCc1nc2c(n1)c1c(non1O)c1c2no[n+]1[O-]`, for which the B-score is active: 5.68.

The values above are taken from PubChem BioAssay AID463165 (Johns Hopkins Ion Channel Center, 2010).
